The values that follow come from patent US10307140B2, “Device for detection of hepatocellar carcinoma (HCC) using an octanoate breath test” (EXALENZ BIOSCIENCE LTD., priority 2011, dated 2019).

Read-outs that look alike come from different tables or passages of the source.

In the series the test system is liver mitochondria.
[1] abbreviates: FIG. 5, cirrhotic HCV patient without liver cancer.
Where [2] appears, read: FIG. 6, cirrhotic HCV patient with active HCC.

Regarding `CCCCCCC[13C](=O)[O-].[Na+]` [13C-octanoate, 1-^13C-Octanoate Sodium], the PDR peak under setting [1] was around 30 %/h; the PDR peak result under setting [2] is “low”; the PDR peak entry (FIG. 8, cryptogenic cirrhosis with HCC, third curve after successful TACE) is listed as “high”; the PDR peak result (FIG. 9, HCV cirrhosis with HCC, second curve after successful TACE) is “high”. Besides, the “time to PDR peak” value under setting [1] was at most 30 min and the “time to PDR peak” value under setting [2] is above 30 min. Further, the PDR curves entry is given as “low” (FIG. 7, NASH patient with HCC, three consecutive OBTs before and after TACE with relapse); “low” (FIG. 8, cryptogenic cirrhosis with HCC, two curves before TACE). Further, the PDR curve entry (FIG. 9, HCV cirrhosis with HCC, before TACE) was “low”. Besides, the OBT peak reads like this: (Subject 01, active HCC, first visit before TACE, 100 mg oral) 16.30 %/h; (Subject 01, second visit 3 months after TACE, HCC inactive) 31.78 %/h; (Subject 02, first visit before TACE) 25.36 %/h; (Subject 02, second visit 3 months after TACE, HCC remained active) 22.19 %/h; (Subject 05, NASH patient, first visit before TACE) 30.35 %/h; (Subject 05, NASH patient, second visit 5 months after TACE, inactive HCC) 37.63 %/h.
